{
  "source": "patent US20040097598A1",
  "about": "“Method of treating neurological disorders using acetone derivatives” (priority 2001, published 2004)",
  "test_system": "MES seizure",
  "experiment": "maximal electroshock (MES) seizure test",
  "assay_type": "in vivo",
  "conditions": "ratio TD50 (rotorod)/ED50 (MES), mice",
  "procedure": "Male CF-1 mice, weighing 28-30 g, were used as subjects (Charles River Canada, La Prairie, Quebec, Canada). Three to five subjects per drug dose were used to prescreen each compound for anticonvulsant activity. Prescreening involved injecting subjects with the drug at doses of 3, 6 mmol/kg and assessing activity and toxicity 30 min later. Promising compounds progressed to dose-response studies, which employed at least 50 subjects, 10 subjects per dose.\nCompounds were dissolved in oil and injected intraperitoneally.\nThirty minutes after drug injection, the MES seizure test was administered. We used the procedure of Krall et al. (1978). In brief, a seizure was induced using the electrical current applied via corneal electrodes. The current was set to 50 mA with a 60 Hz sine wave pulse configuration and train duration of 0.2 sec. Seizure protection was defined in this model as a failure to extend the hind limbs to an angle greater than 90 degrees during the tonic period of the convulsion.\nData analysis was performed using GraphPad Prizm software package version 3.02 for Windows (GraphPad Software Inc, San Diego, Calif., USA). […] Therapeutic index (TI) was calculated as a ratio of TD50/ED50.",
  "data": [
    {"substance": "Acetone", "values": [
      {"measurement": "TI (therapeutic index)", "result": 2.2}
    ]}
  ]
}
